# Measurements as given in patent US20260258420A1 (published 2026).
# Legend:
# [1] = test system: 16 HPV-positive HNSCC and cervical squamous cancer cell lines; experiment: High-throughput drug screen (HTDS), cell death by AOC_LD, HPV-positive cell lines; assay type: cell-based; conditions: resistant = AOC_LD 0
# [2] = test system: 17 HPV-negative HNSCC and cervical squamous cancer cell lines; experiment: High-throughput drug screen (HTDS), cell death by AOC_LD, HPV-negative cell lines; assay type: cell-based; conditions: resistant = AOC_LD 0
smiles,measurement,setting,value
COc1cc2c(c(OC)c1OC)-c1ccc(OC)c(=O)cc1[C@@H](NC(C)=O)CC2 [COLCHICINE],HPV positive Resistant (number of cell lines),[1],1
same,HPV negative Resistant (number of cell lines),[2],7
